This assay relates to enzyme encoded by clone Pp364 (divinyl ether synthase). Briefly: Photometric activity assay of Pp364. It counts as biochemical, Physcomitrella patens. Conditions: drop in absorption at 234 nm; 20 μM substrate.

The structures appear in SMILES notation.

Regarding `CC/C=C\C[C@@H](/C=C/C=C\CCCCCCCC(=O)O)OO` [13-HPOTE, (13S,9Z,11E,15Z)-13-hydroperoxy-9,11,15-octadecatrienoic acid], the “conversion of substrate by enzyme encoded by clone Pp364” value is reported as “converted”. As to `CCCCC/C=C\C=C\C(CCCCCCCC(=O)O)OO` (centres unmarked) [9-HPODE], the “conversion of substrate by enzyme encoded by clone Pp364” value was “converted”.
